The test system of data set [1] is Yoshida sarcoma. Briefly: Isolated perfusion of tumor carrying rat legs. As to conditions: P1 alone.
Data set [2] has as its system S180 cancer cells. Briefly: S180 tumor, ascites form, NMRI-mouse, intraperitoneal chemotherapy.

For `O=P1(N(CCCl)CCCl)NC(SCCO)CCO1` (stereo not drawn), the “healing (animals)” value in data set [1] (2000 nmoles/ml) is on record as “healing with two of the 4 animals”. For the same compound, the “tumor growth” value in data set [1] (2000 nmoles/ml) is “retardation of the growth of the tumor”. Besides, the “animals died after the perfusion” value in data set [1] (5000 nmoles/ml) is “two”. Further, the values for the TI50 in data set [2] (30 days observation) and in data set [2] (60 days observation) were 13 and 9.7, respectively. The CD50 in data set [2] (single intraperitoneal, 3 days after transplantation, mole ratio 1:5 for combination) is 18 mg/kg.

Source of the values: patent US4770870A, “Method for reducing pain associated with the administration of 4-sulfido-oxazaphosphorines and 4-sulfoalkylthio-oxazaphorphorines” (Asta Pharma Aktiengesellschaft, priority 1981, dated 1988).
